The values that follow are results of earlier work, collected in patent US20040197397A1, “Drug delivery system for treatment of urinary incontinence” (Watson Pharmaceuticals, Inc., priority 2002, published 2004).

Structures can show the parent of a compound that is named as a salt.

For this data set the following is noted: oral.

For the molecule `CCN(CC)CC#CCOC(=O)C(O)(c1ccccc1)C1CCCCC1` (centres unmarked) [Oxybutynin hydrochloride], the “absorption through the intestinal tract” value is “good” and the hepatic metabolism result is “higher hepatic metabolism”.
